IC50 data for two compounds are collected here from ChEMBL document CHEMBL1139472, “Synthesis of N-{4-[(2,4-diamino-5-methyl-4,7-dihydro-3H-pyrrolo[2,3-d]pyrimidin-6-yl)thio]benzoyl}-L-glutamic acid and N-{4-[(2-amino-4-oxo-5-methyl-4,7-dihydro-3H-pyrrolo[2,3-d]pyrimidin-6-yl)thio]benzoyl}-L-glutamic acid as dual inhibitors of dihydrofolate reductase and thymidylate synthase and …” (J Med Chem, 2005).

The target in assay [1] is T1, Bifunctional dihydrofolate reductase-thymidylate synthase (Toxoplasma gondii, UniProt Q07422).
T1 sequence (Q07422 whole entry): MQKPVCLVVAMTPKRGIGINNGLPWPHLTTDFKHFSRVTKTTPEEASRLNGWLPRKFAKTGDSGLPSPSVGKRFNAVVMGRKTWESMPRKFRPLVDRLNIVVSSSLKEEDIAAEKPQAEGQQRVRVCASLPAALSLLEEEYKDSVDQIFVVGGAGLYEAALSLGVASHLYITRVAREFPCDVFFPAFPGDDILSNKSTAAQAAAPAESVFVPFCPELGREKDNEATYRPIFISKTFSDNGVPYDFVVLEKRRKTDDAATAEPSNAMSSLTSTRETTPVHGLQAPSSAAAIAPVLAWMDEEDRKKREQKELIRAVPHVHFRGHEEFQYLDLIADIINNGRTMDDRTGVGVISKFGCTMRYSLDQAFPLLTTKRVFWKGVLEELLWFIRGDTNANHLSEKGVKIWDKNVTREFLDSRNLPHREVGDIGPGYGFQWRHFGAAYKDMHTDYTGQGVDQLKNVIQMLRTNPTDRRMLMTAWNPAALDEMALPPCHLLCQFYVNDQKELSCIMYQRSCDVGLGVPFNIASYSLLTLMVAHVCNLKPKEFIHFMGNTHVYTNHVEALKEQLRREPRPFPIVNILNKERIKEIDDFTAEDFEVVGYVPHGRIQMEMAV

The target of assay [2] is T1, Bifunctional dihydrofolate reductase-thymidylate synthase. The source holds these as a separate data set.

Each structure is given as a SMILES string.

For the compound `Nc1nc2[nH]cc(CCc3ccc(C(=O)N[C@@H](CCC(=O)O)C(=O)O)cc3)c2c(=O)[nH]1` [PEMETREXED], the IC50 in assay [1] was determined as 0.46 µM; in assay [2], 2.8 µM.

For the compound `Cc1nc2ccc(CN(C)c3ccc(C(=O)N[C@@H](CCC(=O)O)C(=O)O)s3)cc2c(=O)[nH]1` [RALTITREXED], in assay [1], it took 2.3 µM to reach half-maximal inhibition (IC50).
